Consider one compound from US20090012103A1, “SUBSTITUTED HETEROCYCLIC COMPOUNDS” (priority 2007, published 2009).

Amino acid sequences for entries named in this document (tags omitted).
UniProt Q14524, whole entry: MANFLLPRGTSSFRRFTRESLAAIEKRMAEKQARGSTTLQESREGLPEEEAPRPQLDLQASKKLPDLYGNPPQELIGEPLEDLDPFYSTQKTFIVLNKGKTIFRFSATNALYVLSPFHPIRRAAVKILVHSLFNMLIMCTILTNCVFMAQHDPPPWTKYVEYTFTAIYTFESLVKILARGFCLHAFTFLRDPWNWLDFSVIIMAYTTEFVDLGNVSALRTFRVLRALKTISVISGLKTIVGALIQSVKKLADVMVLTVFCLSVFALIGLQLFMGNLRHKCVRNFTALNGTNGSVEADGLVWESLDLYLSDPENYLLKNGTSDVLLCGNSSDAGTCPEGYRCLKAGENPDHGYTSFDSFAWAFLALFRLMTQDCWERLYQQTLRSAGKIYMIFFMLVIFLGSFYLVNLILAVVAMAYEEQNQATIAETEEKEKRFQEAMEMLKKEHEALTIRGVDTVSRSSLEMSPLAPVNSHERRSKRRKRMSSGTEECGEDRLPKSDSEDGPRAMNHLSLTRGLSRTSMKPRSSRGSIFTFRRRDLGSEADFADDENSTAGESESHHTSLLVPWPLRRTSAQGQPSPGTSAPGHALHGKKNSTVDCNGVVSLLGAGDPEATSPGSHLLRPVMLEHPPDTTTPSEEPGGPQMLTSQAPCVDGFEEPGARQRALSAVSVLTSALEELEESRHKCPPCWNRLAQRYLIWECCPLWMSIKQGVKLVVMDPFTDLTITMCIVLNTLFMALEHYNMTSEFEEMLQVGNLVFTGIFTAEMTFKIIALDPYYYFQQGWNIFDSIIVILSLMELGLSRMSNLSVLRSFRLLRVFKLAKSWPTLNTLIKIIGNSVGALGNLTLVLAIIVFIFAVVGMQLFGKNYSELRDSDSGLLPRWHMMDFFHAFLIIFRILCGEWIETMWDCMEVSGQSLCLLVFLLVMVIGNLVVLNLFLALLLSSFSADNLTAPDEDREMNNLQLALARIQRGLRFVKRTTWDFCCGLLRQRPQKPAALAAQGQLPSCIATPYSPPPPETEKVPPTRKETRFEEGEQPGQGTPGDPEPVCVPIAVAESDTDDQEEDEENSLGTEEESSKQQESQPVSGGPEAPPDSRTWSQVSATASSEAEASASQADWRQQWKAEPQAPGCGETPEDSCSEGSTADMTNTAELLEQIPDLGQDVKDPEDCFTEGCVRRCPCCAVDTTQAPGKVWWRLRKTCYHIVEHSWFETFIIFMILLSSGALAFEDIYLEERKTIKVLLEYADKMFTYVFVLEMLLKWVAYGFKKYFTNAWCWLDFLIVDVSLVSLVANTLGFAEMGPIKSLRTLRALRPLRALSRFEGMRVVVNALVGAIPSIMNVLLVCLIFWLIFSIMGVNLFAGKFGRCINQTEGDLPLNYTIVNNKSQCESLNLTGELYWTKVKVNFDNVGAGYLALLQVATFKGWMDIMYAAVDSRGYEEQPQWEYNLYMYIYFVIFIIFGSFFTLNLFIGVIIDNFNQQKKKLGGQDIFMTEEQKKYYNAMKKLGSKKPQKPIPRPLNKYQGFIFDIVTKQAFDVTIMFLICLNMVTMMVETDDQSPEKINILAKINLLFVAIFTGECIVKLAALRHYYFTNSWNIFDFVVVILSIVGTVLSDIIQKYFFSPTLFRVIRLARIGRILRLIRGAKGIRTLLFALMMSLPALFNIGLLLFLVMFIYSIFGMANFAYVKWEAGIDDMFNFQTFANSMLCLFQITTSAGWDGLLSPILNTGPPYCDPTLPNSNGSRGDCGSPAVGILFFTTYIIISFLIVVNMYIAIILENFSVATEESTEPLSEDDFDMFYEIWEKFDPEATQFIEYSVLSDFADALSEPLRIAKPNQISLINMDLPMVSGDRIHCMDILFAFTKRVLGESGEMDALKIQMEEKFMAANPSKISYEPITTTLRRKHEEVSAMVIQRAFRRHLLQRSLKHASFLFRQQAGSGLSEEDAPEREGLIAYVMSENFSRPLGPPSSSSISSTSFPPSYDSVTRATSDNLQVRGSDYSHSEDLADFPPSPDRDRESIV

SMILES strings stand for the structures.

The target of this assay is wild-type human cardiac sodium channel, hNav1.5 (Homo sapiens, UniProt Q14524). Kind of assay: Late INa screening assay (late sodium current, PatchXpress whole cell patch clamp). In kind it is cell-based. As to conditions: read-out: Late INa % blk. Here is the method:
The late sodium current (Late INa) and peak sodium current (Peak INa) assays are performed on an automated electrophysiology platform, PatchXpress 7000A (MDS Analytical Technologies, Sunnyvale, Calif.), which uses the whole cell patch clamp technique to measure currents through the cell membrane of up to 16 cells at a time. The assay uses an HEK293 (human embryonic kidney) cell line heterologously expressing the wild-type human cardiac sodium channel, hNav1.5, purchased from Millipore (Billerica, Mass.). No beta subunits were coexpressed with the Na channel alpha subunit. […] Experiments are carried out at 24-27° C.
For both the Late INa and Peak INa assays, series resistance compensation is set to 50% and whole-cell compensation is performed automatically. […] Currents through open sodium channels are automatically recorded and stored in the DataXpress2 database (MDS Analytical Technologies, Sunnyvale, Calif.). Analysis is performed using DataXpress2 analysis software and data are compiled in Excel.
Compound stocks are routinely made in glass vials to 10 mM in dimethyl sulfoxide (DMSO). […]
All compounds are tested to determine their activity in blocking the late sodium current. […] Baseline current in the absence of Na^+ ions is measured at the end of each experiment (after two additions of 0 Na solution-see above) and is used to calculate the percent block by compound.
In general terms: The patch-clamp technique gives a direct electrical read-out from membranes.

Regarding `CN(C)CCC1=C(C(=O)OCc2ccccc2)C(c2cccc3ccccc23)n2nnnc2N1` (stereo not shown) [PT-338, benzyl 5-(2-(dimethylamino)ethyl)-7-(naphthalen-1-yl)-4,7-dihydrotetrazolo[1,5-a]pyrimidine-6-carboxylate], the inhibition at 10 µM was determined as 56.3%.
